# pIC50: −log10 of the molar value.
# Assays:
# [1] = target: GppNHp-loaded KRAS4b (amino acids 1-169) G12C/C118S protein (Homo sapiens, UniProt P01116, C118S/G12C); assay: Covalent cysteine 12 modification by MALDI-TOF MS, GppNHp-loaded KRAS G12C; assay type: biochemical; conditions: 15 minutes reaction time, compound 95 or later using 1 μM proteins
# [2] = target: T1, GTP-loaded KRAS4b (amino acids 1-169) G12C/C118S protein (Homo sapiens, UniProt P01116, C118S/G12C); assay: Covalent cysteine 12 modification by MALDI-TOF MS, GTP-loaded KRAS G12C; assay type: biochemical; conditions: 15 minutes reaction time, compound 95 or later using 1 μM proteins
# T1 construct: KRAS4b (amino acids 1-169) G12C/C118S protein; made in house
# [3] = target: GDP-loaded KRAS4b (amino acids 1-169) G12C/C118S protein (Homo sapiens, UniProt P01116, C118S/G12C); assay: Covalent cysteine 12 modification by MALDI-TOF MS, GDP-loaded KRAS G12C; assay type: biochemical; conditions: 15 minutes reaction time, compound 95 or later using 1 μM proteins
# [4] = target: Avi-KRAS G12C (1-169) GppNHp/RAF1 RBD-3xFLAG (52-151) (Homo sapiens, UniProt P01116, G12C); assay: biochemical; conditions: Raf1-GppNHp-KRAS G12C disruption, Raf1 RBD-KRAS G12C-GppNHp disruption assay IC50
SMILES,GppNHp-KRAS G12C percent of modification [1],GTP-KRAS G12C percent of modification [2],GDP-KRAS G12C percent of modification [3],pIC50 [4]
"C=CC(=O)N1C[C@H](C)N(c2nc(OC[C@@]34CCCN3C[C@H](F)C4)nc3c(F)c(-c4ccc(F)c5sc(N)nc45)c(C(F)(F)F)cc23)C[C@H]1C (atropisomer, axis not shown) [Compound 267]",A (percent of modification ≥70%),B (50≤percent of modification <70%),A (percent of modification ≥70%),> 6.30
"C=CC(=O)N1C[C@H](C)N(c2nc(OC[C@@]34CCCN3C[C@H](F)C4)nc3c(F)c(-c4ccc(F)c5sc(N)nc45)c(C(F)(F)F)cc23)C[C@H]1C (atropisomer, axis not shown) [Compound 268]",D (percent of modification <10%),D (percent of modification <10%),D (percent of modification <10%),5.30 to 6.30
"C=CC(=O)N1CC[C@@H](N(C)c2nc(OC[C@]34CCCN3C[C@H](OC)C4)nc3c(F)c(-c4ccc(F)c5sc(N)nc45)c(C(F)(F)F)cc23)C1 (atropisomer, axis not shown) [Compound 277]",A (percent of modification ≥70%),A (percent of modification ≥70%),A (percent of modification ≥70%),> 6.30
"C=CC(=O)N1CC[C@@H](N(C)c2nc(OC[C@]34CCCN3C[C@H](OC)C4)nc3c(F)c(-c4ccc(F)c5sc(N)nc45)c(C(F)(F)F)cc23)C1 (atropisomer, axis not shown) [Compound 278]",D (percent of modification <10%),D (percent of modification <10%),D (percent of modification <10%),5.30 to 6.30
C=CC(=O)N1C[C@H](C)N(c2nc(OC[C@]34CCCN3C[C@@H](F)C4)nc3c(F)c(-c4ccc(F)c5sc(N)c(C#N)c45)c(C(F)(F)F)cc23)C[C@H]1C [Compound 334],–,C (10%≤percent of modification <50%),–,> 6.30
C=CC(=O)N1C[C@H](C)N(c2nc(OC[C@@]34CCCN3C[C@H](F)C4)nc3c(F)c(-c4ccc(F)c5sc(N)c(C#N)c45)c(C(F)(F)F)cc23)C[C@@H]1C [Compound 349],–,C (10%≤percent of modification <50%),B (50≤percent of modification <70%),> 6.30
"C=CC(=O)N1CC[C@@H](N(C)c2nc(OC[C@@]34CCCN3C[C@H](F)C4)nc3c(F)c(-c4ccc(F)c5sc(N)c(C#N)c45)ccc23)[C@H]1C [Compound 358, 4-(4-(((2R,3R)-1-acryloyl-2-methylpyrrolidin-3-yl)(methyl)amino)-8-fluoro-2-(((2R,7aS)-2-fluorotetrahydro-1H-pyrrolizin-7a(5H)-yl)methoxy)quinazolin-7-yl)-2-amino-7-fluorobenzo[b]thiophene-3-carbonitrile]",–,A (percent of modification ≥70%),A (percent of modification ≥70%),> 6.30
"C=CC(=O)N1CC[C@@H](N(C)c2nc(OC[C@@]34CCCN3C[C@H](F)C4)nc3c(F)c(-c4ccc(F)c5sc(N)c(C#N)c45)c(Cl)cc23)[C@H]1C [Compound 395, 4-(4-((1-acryloyl-2-methylpyrrolidin-3-yl)(methyl)amino)-6-chloro-8-fluoro-2-(((2R,7aS)-2-fluorotetrahydro-1H-pyrrolizin-7a(5H)-yl)methoxy)quinazolin-7-yl)-2-amino-7-fluorobenzo[b]thiophene-3-carbonitrile]",–,A (percent of modification ≥70%),A (percent of modification ≥70%),> 6.30
C=CC(=O)N1CCC(N(C)c2nc(OC[C@@H]3C[C@@H](F)CN3C)nc3c(F)c(-c4ccc(F)c5sc(N)c(C#N)c45)c(C(F)(F)F)cc23)[C@H]1C (some centres unmarked) [Compound 399],–,B (50≤percent of modification <70%),B (50≤percent of modification <70%),> 6.30
C=CC(=O)N1CCC(N(C)c2nc(OC[C@@H]3CCCN3C)nc3c(F)c(-c4ccc(F)c5sc(N)c(C#N)c45)c(C(F)(F)F)cc23)[C@H]1C (some centres unmarked) [Compound 400],–,A (percent of modification ≥70%),A (percent of modification ≥70%),> 6.30
C=CC(=O)N1CCC(N(C)c2nc(OC[C@@H]3CCCN3C)nc3c(F)c(-c4ccc(F)c5sc(N)c(C#N)c45)c(Cl)cc23)[C@H]1COC (some centres unmarked) [Compound 416],A (percent of modification ≥70%),A (percent of modification ≥70%),A (percent of modification ≥70%),–
C=CC(=O)N1CCC(N(C)c2nc(OC[C@@H]3CCCN3C)nc3cc(-c4ccc(F)c5sc(N)c(C#N)c45)c(F)cc23)[C@H]1C (some centres unmarked) [Compound 417],A (percent of modification ≥70%),A (percent of modification ≥70%),A (percent of modification ≥70%),–
C=CC(=O)N1CCC(N(C)c2nc(OC[C@@H]3CCCN3C)nc3c(F)c(-c4ccc(F)c5sc(N)c(C#N)c45)c(Cl)cc23)[C@H]1C (some centres unmarked) [Compound 419],B (50≤percent of modification <70%),C (10%≤percent of modification <50%),A (percent of modification ≥70%),–
C=CC(=O)N1CCC(N(C)c2nc(OC[C@@H]3CCCN3C)nc3c(F)c(-c4ccc(F)c5sc(N)c(C#N)c45)ccc23)[C@H]1C (some centres unmarked) [Compound 420],A (percent of modification ≥70%),A (percent of modification ≥70%),A (percent of modification ≥70%),–
C=CC(=O)N1CCC(N(CC)c2nc(OC[C@@]34CCCN3C[C@H](F)C4)nc3c(F)c(-c4ccc(F)c5sc(N)c(C#N)c45)ccc23)[C@H]1C (some centres unmarked) [Compound 421],–,A (percent of modification ≥70%),A (percent of modification ≥70%),> 6.30
C=CC(=O)N1CCC(N(C)c2nc(OC[C@@H]3CC4(CC4)CN3C)nc3c(F)c(-c4ccc(F)c5sc(N)c(C#N)c45)ccc23)[C@H]1COC (some centres unmarked) [Compound 433],A (percent of modification ≥70%),A (percent of modification ≥70%),A (percent of modification ≥70%),–
C=CC(=O)N1CCC(N(C)c2nc(OC[C@@H]3CCCN3C)nc3cc(-c4ccc(F)c5sc(N)c(C#N)c45)c(F)cc23)[C@H]1COC (some centres unmarked) [Compound 441],A (percent of modification ≥70%),B (50≤percent of modification <70%),A (percent of modification ≥70%),–
C=CC(=O)N1CCC(N(C)c2nc(OC[C@@H]3CC4(CC4)CN3C)nc3c(F)c(-c4ccc(F)c5sc(N)c(C#N)c45)c(Cl)cc23)[C@H]1C (some centres unmarked) [Compound 448],D (percent of modification <10%),D (percent of modification <10%),A (percent of modification ≥70%),–
C=CC(=O)N1CCC(N(C)c2nc(OC[C@@H]3C[C@@H](OC)CN3C)nc3c(F)c(-c4ccc(F)c5sc(N)c(C#N)c45)c(Cl)cc23)[C@H]1C (some centres unmarked) [Compound 450],–,A (percent of modification ≥70%),A (percent of modification ≥70%),> 6.30
C=CC(=O)N1CCC(N(C)c2nc(OC)nc3c(F)c(-c4ccc(F)c5sc(N)c(C#N)c45)ccc23)[C@H]1C (some centres unmarked) [Compound 461],D (percent of modification <10%),D (percent of modification <10%),C (10%≤percent of modification <50%),–
C=CC(=O)N1CCC(N(C)c2ncnc3c(F)c(-c4ccc(F)c5sc(N)c(C#N)c45)ccc23)[C@H]1C (some centres unmarked) [Compound 462],D (percent of modification <10%),D (percent of modification <10%),C (10%≤percent of modification <50%),–
C=CC(=O)N1CCC(N(C)c2nc(OC[C@@H]3CCCN3CC)nc3c(F)c(-c4ccc(F)c5sc(N)c(C#N)c45)c(Cl)cc23)[C@H]1C (some centres unmarked) [Compound 464],B (50≤percent of modification <70%),C (10%≤percent of modification <50%),A (percent of modification ≥70%),–
C=CC(=O)N1CCC(N(C)c2nc(OCCOC)nc3c(F)c(-c4ccc(F)c5sc(N)c(C#N)c45)ccc23)[C@H]1C (some centres unmarked) [Compound 466],D (percent of modification <10%),D (percent of modification <10%),C (10%≤percent of modification <50%),–
C=CC(=O)N1CCC(N(C)c2nc(OCCO)nc3c(F)c(-c4ccc(F)c5sc(N)c(C#N)c45)ccc23)[C@H]1C (some centres unmarked) [Compound 468],D (percent of modification <10%),D (percent of modification <10%),C (10%≤percent of modification <50%),–
C=CC(=O)N1CC[C@@H](N(C)c2nc(OC[C@@]34CCCN3C[C@H](F)C4)nc3c(F)c(-c4ccc(F)c5sc(N)c(C#N)c45)c(C(F)(F)F)cc23)[C@@H]1C [Compound 469],–,A (percent of modification ≥70%),–,> 6.30

# Source: patent US12528818B2, “Compositions and methods for inhibition of RAS” (Leidos Biomedical Research, Inc., priority 2021, dated 2026)
